# Bioassay records as filed in PubChem BioAssay.
# Sampled rows, rich in hits. Any-hit rate of the full collection: about 16%.
# TDP1 inh – blocks human tyrosyl-DNA phosphodiesterase 1. Q9NUW8. recombinant TDP1, AlphaScreen DNA substrate cleavage. Potency, µM (doses to about 130 µM), for inactives: top-dose activity change, negative = inhibition, most hits filed as inhibitors. hit rate 0.28% among 350,000. AID 485290; note: potency is the fitted concentration of half-maximal effect; % is set by controls: 0 for no effect and ±100 for the full control effect; nearly all actives have a fitted effect of over 40% in size
#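 Here, a 5' biotin and 3' phosphotyrosine-FITC DNA oligonucleotide reports Tdp1 activity: intact substrate bridges AlphaScreen beads, while cleavage leaves a 3' phosphate and drops signal. All incubations at room temperature.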
# miR-21 reporter – raises the signal of a miR-21 reporter | HeLa miR-21 FLuc reporter, luciferase, 48 h | Potency, µM (doses to about 38.3 µM), for the others: at the highest dose reporter change, positive = more light | 340,000 tested, under 10 active | AID 2288; active = well fitted rising curve with a large enough effect; inconclusive = small, poorly fitted or top-dose-only effect; inactive = no such curve, though single readings can be large or run the other way;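 also: % of control where 0% means no effect; miR-21 action dims this reporter so a rising signal means less miR-21 action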
#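 Luminescence from a firefly luciferase reporter carrying a miR-21 binding site downstream, stably expressed under a CMV promoter in HeLa cells that make miR-21 endogenously, reports miRNA modulation after 48 h compound exposure up to approximately 40uM final.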
# DT40 TDP1 CPT – DT40-hTDP1 cell growth loss with CPT | Potency, µM (highest dose often 46.2 µM), inactives show at the top dose activity change, negative = growth inhibition, hits mostly inhibitors | hit rate 12% among 420,000 | chicken DT40 Tdp1-/-;hTDP1 cells + 20 nM CPT, ATP luminescence, 48 h; note: potency is the fitted concentration of half-maximal effect; % is set by controls: 0 for no effect and ±100 for the full control effect; nearly all actives have a fitted effect of over 55% in size
#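 Chicken DT40 Tdp1-/- cells stably complemented with human TDP1 were seeded at 400 cells/well in medium containing 20 nM camptothecin, exposed to pin-transferred compounds, and grown at 37 °C for at least 48 hr. Viability was read as ATP luminescence.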
# DT40 TDP1 no CPT – qHTS for Inhibitors of human tyrosyl-DNA phosphodiesterase 1 (TDP1): qHTS in cells in absence of CPT | DT40 Tdp1-/- hTDP1 cells, no CPT, ATP luminescence, 48 h | Potency, µM (highest dose often 46.2 µM), inactives show at the top dose activity change, negative = growth inhibition, usual class: inhibitors | hit rate 15% among 420,000 | AID 686978, 2013; note: potency is the fitted concentration of half-maximal effect; % is set by controls: 0 for no effect and ±100 for the full control effect; nearly all actives have a fitted effect of over 55% in size
#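 Readout: luminescence from CellTiter-Glo after 30 min in the dark at RT. Cells: DT40 Tdp1-/- with stable hTDP1, 400/well. Exposure: compounds alone, ≥48 hr, 37 °C.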
# uPA surface inh – blocks generation of uPA at the cell surface | cell surface uPA generation assay, qHTS | Potency, µM (titrated, usually from 38.3 µM), without a hit: top-dose activity change, negative = inhibition, most hits filed as inhibitors | hit rate 0.31% among 330,000; active = well fitted inhibition curve with a large enough effect; inconclusive = small, poorly fitted or top-dose-only effect; inactive = no such curve, though single readings can be large or run the other way; tested in mouse RAW 264.7 cells; note: potency is the fitted concentration of half-maximal effect; % is set by controls: 0 for no effect and ±100 for the full control effect; nearly all actives have a fitted effect of over 55% in size
# * = called active by the depositor; ? = inconclusive; . = no result given; ! = a repeat was not active; [ ] = dose if it differs, or a comment. Unless noted, calls come from the whole dose curve; as a rule, active = well fitted curve in the direction sought with a large enough effect; inconclusive = small, poorly fitted or top-dose-only effect, or another doubt; inactive = no such curve, though single readings can be large; an effect the other way counts as inactive or inconclusive.
# Labels used below: A = TDP1 inh; B = miR-21 reporter; C = DT40 TDP1 CPT; D = DT40 TDP1 no CPT; E = uPA surface inh
1	O=C1C2C3C=CC(CC3)C2C(=O)N1c1ccc(F)cc1 (configuration not stated)
  A = .; B = -3.7%; C = 6.5%; D = 3.7%; E = 3.4%
2	CC(C)C1NC2(C(=O)c3ccccc3C2=O)C2C(=O)N(c3ccc(F)cc3)C(=O)C12 (configuration not stated)
  A = 8.0%; B = 0.3%; C = 25.9µM*; D = 25.9µM*; E = -0.9%
3	Cc1ccc(C)c(OCCSc2nc3ccccc3n2CC(=O)N2CCOCC2)c1
  A = 8.6%; B = -8.4%; C = -22.1%; D = ?; E = .
4	Cc1ccc(C(C)C)c(OCCSc2nc3ccccc3n2CC(O)CO)c1 (configuration not stated)
  A = 1.1%; B = 7.4%; C = 13µM*; D = 16.4µM*; E = .
5	COc1cc2c(C(=O)N3CCN(c4cccc(Cl)c4)CC3)cn(CC(C)C)c(=O)c2cc1OC
  A = 6.0%; B = 12.5%; C = 23.1µM*; D = ?; E = -8.4%
6	COc1cc(C(=O)N2CCN(S(=O)(=O)c3ccc(C)cc3)CC2)ccc1OCC(=O)N1CCOCC1
  A = .; B = .; C = 1.8%; D = -8.0%; E = -11.7%
7	CCn1cc(C(=O)N2CCN(c3cccc(C)c3C)CC2)c2cc(OC)c(OC)cc2c1=O
  A = 8.8%; B = ?; C = 20.6µM*; D = 20.6µM*; E = .
8	COc1cc(C(=O)N2CCN(c3cccc(C(F)(F)F)c3)CC2)ccc1OCC(=O)N1CCOCC1
  A = .; B = .; C = 23.1µM*; D = 20.6µM*; E = -7.4%
9	COc1ccccc1C(=O)N1CCN(c2cccc(C(F)(F)F)c2)CC1
  A = 5.0%; B = 25.7%; C = 10.3µM*; D = 11.6µM*; E = -5.7%
10	COCC(=O)N1CCN(c2cccc(C(F)(F)F)c2)CC1
  A = 5.1%; B = -6.0%; C = ?; D = -23.0%; E = -1.3%
11	CCn1cc(C(=O)N2CCN(c3cccc(C(F)(F)F)c3)CC2)c2cc(OC)c(OC)cc2c1=O
  A = 1.9%; B = -1.4%; C = 18.4µM*; D = 23.1µM*; E = .
12	C=CCOc1ccc(C[C@H](N)C(=O)NC[C@H]2O[C@@H](n3ccc(N)nc3=O)[C@H](O)[C@@H]2O)cc1
  A = .; B = .; C = -23.0%; D = ?; E = .
13	CCOc1cc(Br)c(C=O)cc1OCC
  A = 2.4%; B = 22.9%; C = 5.17µM*; D = 6.51µM*; E = -19.0%
14	O=c1[nH]c2ccccc2cc1CN(c1ccccc1)S(=O)(=O)c1ccccc1
  A = 5.5%; B = -3.2%; C = -24.4%; D = -13.4%; E = -5.2%
15	Cc1ccc2cc(CN(c3ccccc3)S(=O)(=O)c3ccccc3)c(=O)[nH]c2c1
  A = .; B = -6.4%; C = -25.0%; D = ?; E = -2.1%
16	Cc1ccc(N(Cc2cc3cc(C)ccc3[nH]c2=O)S(=O)(=O)c2ccccc2)cc1
  A = 2.8%; B = -0.1%; C = 23.1µM*; D = 14.6µM*; E = -1.6%
17	COc1ccc2[nH]c(=O)c(CN(c3ccccc3OC)S(=O)(=O)c3ccccc3)cc2c1
  A = .; B = 17.3%; C = 16.4µM*; D = 14.6µM*; E = -2.5%
18	COc1ccc2[nH]c(=O)c(CN(c3ccccc3)S(=O)(=O)c3ccccc3)cc2c1
  A = 2.8%; B = -3.6%; C = ?; D = 20.6µM*; E = -0.9%
19	CCCC[C@]12Cc3cc(C#N)ccc3C(O1)c1c(c3ccccc3oc1=O)O2
  A = .; B = -0.3%[7.66 µM]; C = .; D = .; E = .
20	CC(=O)c1ccccc1OCCn1nc(C(=O)O)c2ccccc2c1=O
  A = 8.8%; B = -2.4%; C = -3.1%; D = 16.4µM*; E = 0.1%
21	CCOC(=O)N1CCN(C(=O)CCn2nc(-c3ccc(Cl)cc3)ccc2=O)CC1
  A = 5.2%; B = 1.3%; C = -25.1%; D = ?; E = -0.9%
22	Cc1ccc(C)c(N2CCN(C(=O)c3cc4c(=O)n(Cc5ccccc5)ccc4nc3C)CC2)c1
  A = 5.8%; B = 13.0%; C = 16.4µM*; D = 23.1µM*; E = .
23	Cc1ccc(C)c(N2CCN(C(=O)c3cc4c(=O)n(Cc5cccnc5)ccc4nc3C)CC2)c1
  A = 7.1%; B = 8.2%; C = 23.1µM*; D = ?; E = .
24	CC(C)(C)c1ccc(-c2cc(C(=O)NNC(=O)Nc3ccccc3)c3ccccc3n2)cc1
  A = 5.9%; B = -0.1%; C = ?; D = 20.6µM*; E = -10.9%
25	O=C(NNC(=O)c1cc(-c2ccccc2)nc2ccccc12)Nc1cccc(Cl)c1
  A = 2.9%; B = 24.6%; C = ?; D = 20.6µM*; E = 10.2%

# New compounds follow.
# Labels used below: A = TDP1 inh; B = miR-21 reporter; C = DT40 TDP1 CPT; D = DT40 TDP1 no CPT; E = uPA surface inh
26	O=C(NNC(=O)c1cc(-c2ccncc2)nc2ccccc12)Nc1ccc(F)cc1
  A = 0.3%; B = 11.0%; C = ?; D = ?; E = 4.0%
27	O=C(NNC(=O)c1cc(-c2cccnc2)nc2ccccc12)Nc1ccc(Cl)cc1
  A = -5.1%; B = 8.0%; C = ?; D = ?; E = 0.7%
28	CCSc1ncc(Cl)c(C(=O)Nc2c(C(=O)c3ccc(C)c(F)c3)oc3ccccc23)n1
  A = 6.1%; B = -6.5%; C = -12.0%; D = -3.7%; E = .
29	COc1ccc(OCC(=O)Nc2ccc3c(c2)nc(CCN2CCN(c4ccccn4)CC2)n3C)cc1
  A = .; B = .; C = 18.4µM*; D = ?; E = .
30	COc1ccc(OCC(=O)Nc2ccc3c(c2)nc(CCN2CCCCC2)n3C)cc1
  A = 3.1%; B = -4.1%; C = -30.9%; D = 16.7%; E = 0.6%
31	Cn1c(CCN2CCCC2)nc2cc(NC(=O)COc3ccc(Cl)cc3)ccc21
  A = .; B = .; C = ?; D = 16.4µM*; E = .
32	Cn1c(CCN2CCN(c3ccccn3)CC2)nc2cc(NC(=O)COc3ccc(Cl)cc3)ccc21
  A = 4.9%; B = 29.0%; C = 18.4µM*; D = 4.11µM*; E = ?
33	CCN1CCN(CCc2nc3cc(NC(=O)COc4ccc(Cl)cc4)ccc3n2C)CC1
  A = 2.4%; B = -0.3%; C = ?; D = ?; E = ?
34	Cc1cccc(OCC(=O)Nc2ccc3c(c2)nc(CCN2CCN(c4ccccn4)CC2)n3C)c1
  A = 6.4%; B = 27.3%; C = 23.1µM*; D = 18.4µM*; E = ?
35	CN1CCN(C(=O)c2cc(Oc3c(F)c(F)c(F)c(F)c3F)cc(C(=O)N3CCN(C)CC3)c2)CC1
  A = -0.6%; B = -5.2%; C = 12.2%; D = -1.1%; E = -1.8%
36	COc1ccccc1NC(=O)N1CCC(NC(=O)C2CCCCC2)CC1
  A = 3.4%; B = -1.0%; C = -4.1%; D = -27.0%; E = -0.6%
37	CCc1nnc(NCC(=O)N2CCc3ccccc32)s1
  A = 1.9%; B = -4.6%; C = ?; D = ?; E = 5.0%
38	C/C=C(\C)C(=O)NCCN1C2=NC[C@@H](C)N2C[C@H]1Cc1ccc(O)cc1
  A = 3.8%; B = -1.9%; C = 0.5%; D = 1.7%; E = 5.5%
39	COc1ccc(C[C@H]2CN3C(=NC[C@@H]3Cc3ccc(O)cc3)N2CCNC(=O)c2ccc(C)c(Br)c2)cc1
  A = 6.4%; B = ?; C = 13µM*; D = 13µM*; E = -15.4%
40	Cc1ccc(C(=O)NCCN2C3=NC[C@H](Cc4ccc(O)cc4)N3C[C@H]2Cc2ccc(O)cc2)cc1Br
  A = .; B = 1.1%; C = ?; D = 16.4µM*; E = -2.7%
41	Cc1cc2c(cc1S(=O)(=O)NCc1ccccc1Cl)OCC(=O)N2
  A = 0.0%; B = -1.7%; C = ?; D = -17.9%; E = .
42	CCOc1ccccc1CNS(=O)(=O)c1cc2c(cc1C)NC(=O)CO2
  A = 2.7%; B = 24.7%; C = ?; D = 23.1µM*; E = .
43	C[C@]12CCC(=O)C=C1C=C[C@@H]1[C@@H]2CC[C@@]2(C)[C@H]1CC[C@@]21CCC(=O)O1
  A = .; B = -14.4%; C = ?; D = 15µM*!; E = -16.6%
44	CC(=O)SC1CC2=CC(=O)CC[C@@]2(C)C2CC[C@@]3(C)[C@@H](CC[C@@]34CCC(=O)O4)C12 (some centres not stated)
  A = 11.9%[56.1 µM]; B = .; C = 13µM*; D = 16.4µM*; E = .
45	Cc1cncc(NCc2cccc(Cl)c2)n1
  A = .; B = .; C = -18.7%; D = -25.3%; E = .

# Sorted by molecular weight (largest number first): part of the list above.
# Labels used below: A = TDP1 inh; B = miR-21 reporter; C = DT40 TDP1 CPT; D = DT40 TDP1 no CPT; E = uPA surface inh
34	Cc1cccc(OCC(=O)Nc2ccc3c(c2)nc(CCN2CCN(c4ccccn4)CC2)n3C)c1
  A = 6.4%; B = 27.3%; C = 23.1µM*; D = 18.4µM*; E = ?
23	Cc1ccc(C)c(N2CCN(C(=O)c3cc4c(=O)n(Cc5cccnc5)ccc4nc3C)CC2)c1
  A = 7.1%; B = 8.2%; C = 23.1µM*; D = ?; E = .
12	C=CCOc1ccc(C[C@H](N)C(=O)NC[C@H]2O[C@@H](n3ccc(N)nc3=O)[C@H](O)[C@@H]2O)cc1
  A = .; B = .; C = -23.0%; D = ?; E = .
14	O=c1[nH]c2ccccc2cc1CN(c1ccccc1)S(=O)(=O)c1ccccc1
  A = 5.5%; B = -3.2%; C = -24.4%; D = -13.4%; E = -5.2%
